## Antibody variant affinities, Ab-14 light chain, assay 1

Antigen: PDVDLGDISGINAS, a 14-residue peptide of the SARS-CoV-2 spike HR2 region.

The variants keep the heavy chain, the linker and the frameworks of Ab-14 (scFv order VH, a (GGGGS)3 linker, VL).
VH: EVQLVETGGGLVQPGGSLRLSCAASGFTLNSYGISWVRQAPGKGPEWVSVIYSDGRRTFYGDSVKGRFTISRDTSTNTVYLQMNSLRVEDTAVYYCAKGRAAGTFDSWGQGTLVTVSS
VL: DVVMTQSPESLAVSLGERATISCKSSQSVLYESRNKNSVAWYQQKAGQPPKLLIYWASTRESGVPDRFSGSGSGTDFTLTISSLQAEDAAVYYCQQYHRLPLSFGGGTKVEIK

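The parent was found by panning a naive human phage display library on the peptide. AAYL50 was designed without a model: most single CDR substitutions and a random sample of double and triple ones. Affinity was read by AlphaSeq, a pooled yeast mating assay with surface-displayed partners. The frequency of each diploid, read from paired DNA barcodes, reflects how well the two displayed proteins bind. Each replicate has its own calibration line, from reference interactions of the BCL2 family. Each pool was mated in three replicate cultures.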

Each variant is given by its three light chain CDRs, as the data file delimits them; those of the parent are KSSQSVLYESRNKNSVA, WASTRES, QQYHRLPLS.
Values are log10 of the apparent Kd in nM; lower means stronger binding.
"ND" marks a missing value. The strain was present, yet no cells mated with the target were sequenced in that replicate, which points to weak or no binding.

CDR-L1 | CDR-L2 | CDR-L3 | log10 Kd (nM) by replicate | control signals
KQSWSVGYESRNKNSVA | WASTRES | QQYHRLPLS | 0.33 / 0.41 / 0.38 | 1 of 9 (5.73)
KSSQSVLCESRDKNSVA | WASTRES | QQYHRLPLS | 1.10 / 1.22 / 1.45 | 4 of 9 (4.50)
KSSQSVEYESRNKNSVA | YKSTRES | QQYHRLPLS | 1.11 / 1.49 / 1.77 | 3 of 9 (4.43)
FSSMSVLYESRNKNSVA | WASHRES | QQYHRLPLS | 2.06 / 2.12 / 2.37 | 5 of 9 (4.59)
KSPQSVLYESRNKNSVA | EASTRES | QQYHRLPLS | -0.18 / 0.15 / -0.02 | 1 of 9 (5.57)
KSGQSVLYESFNKNSVA | WASTRES | QQYHRLPLF | 4.53 / ND / ND | 2 of 9 (4.06)
KSSQSVLYESRNKNWVA | WASHRES | QQYHRLNLS | 4.00 / 3.29 / 3.70 | 5 of 9 (4.29)
KSSQSVLYESRNKNSVA | WASTRNS | QQTHRLELS | 6.23 / 4.35 / 4.76 | 7 of 9 (4.72)
KSSQSVLYESRNKNSVA | WESTRES | QQYWRAPLS | 3.15 / 2.67 / 2.82 | 3 of 9 (4.48)
QSSQSVRYESRNKNSVA | WASTRIS | QQYHRLPLS | 2.04 / 1.61 / 1.82 | 1 of 9 (3.00)
CSSQSVLYESRNKNSVA | WDSTRES | EQYHRLPLS | ND / ND / ND | 1 of 9 (3.69)
KSIQSVCYENRNKNSVA | WASTRES | QQYHRLPLS | 1.40 / 1.60 / 1.46 | 2 of 9 (4.50)
KSSQSFLYESRNKNSVA | WADTRES | QQYHRHPLS | 1.76 / 1.60 / 1.70 | 7 of 9 (4.61)
GSSQSVLYESRNKNSVA | WASTRES | SQYHRLPLS | 4.45 / 3.49 / 4.00 | 6 of 9 (4.55)
KSSQSVLYESRNKNSVA | WNSTRES | QQYHRTPLS | ND / ND / 4.31 | 2 of 9 (4.07)
KQSQSVLYESRNKNSVA | WASTTES | QQYGRLPLS | 2.34 / 2.26 / 2.88 | 3 of 9 (3.31)
KSLQNVLYESRNKNSVA | WASTRPS | QQYHRLPLS | 1.85 / 3.41 / 2.77 | 0 of 9
KSSQSVLYESRNKNSVF | WASGRES | QQLHRLPLS | ND / ND / ND | 2 of 9 (4.52)
KSSQSVLYESRNKNNPA | WASTRES | VQYHRLPLS | 5.59 / ND / ND | 2 of 9 (3.62)
KSSQSVLHESRNKNSVA | WASTRES | QQYHRLPLS | ND / ND / ND | 0 of 9
KSSQSVLYESRNKNSVN | WACTRES | QQYHRLQLS | ND / ND / ND | 0 of 9
HSSQSVLYESRNKNSGA | WASTVES | QQYHRLPLS | ND / ND / ND | 0 of 9
KSSQLVLYESRNKNSVA | WALFRES | QQYHRLPLS | ND / ND / ND | 1 of 9 (4.78)
KSSQSVLYESRNKNSVC | WASTRES | RQYHLLPLS | 2.33 / 2.77 / 2.82 | 2 of 9 (4.26)
KSSQSPGYESRNKGSVA | WASTRES | QQYHRLPLS | 1.25 / 1.44 / 1.74 | 0 of 9
KCSQSVLYESRNKNSVA | WASTRES | QQYHRLPLS | 0.88 / 1.09 / 1.15 | 0 of 9
KSSQSVLYESRNKNAVY | WASTRPS | QQYHRLPLS | ND / ND / 3.74 | 1 of 9 (3.63)
KSNQSNAYESRNKNSVA | WASTRES | QQYHRLPLS | ND / 4.04 / ND | 2 of 9 (3.41)
KSSQSVLYESRNKNSVA | WASDRES | QQADRLPLS | ND / 4.69 / 4.37 | 4 of 9 (4.90)
KSSQYVLYESRNKNSVA | WADTRES | QQYHRLPSS | 3.80 / ND / 4.33 | 2 of 9 (4.47)
KSSQSVLYESRNKNSVA | WASTLES | QQYHRTPLF | 3.66 / 3.04 / 3.45 | 2 of 9 (3.86)
KSSQSHLYESRNKNSVA | DASTRES | QRYHRLPLS | -0.10 / 0.26 / 0.03 | 8 of 9 (4.62)
KSSQSVLYMSRNKNSVA | WASTREY | QQYHRLPLA | 1.82 / 1.55 / 1.63 | 1 of 9 (3.59)
KSSQTVLYESENKNSVL | WASTRES | QQYHRLPLS | ND / ND / ND | 0 of 9
KSSQSVLYESRNKNSVA | WASTRVI | QQYHRLPLS | 0.82 / 0.96 / 0.94 | 2 of 9 (5.12)
KSSQSKLYESSNKNYVA | WASTRES | QQYHRLPLS | ND / ND / 1.95 | 0 of 9
KSSQSVLYESRVKNSKA | WASTRES | QQYYRLPLS | ND / ND / ND | 2 of 9 (4.15)
KSSQSVLYESRRKNSVA | WASTRET | LQYHRLPLS | 1.21 / 1.37 / 1.48 | 5 of 9 (4.49)
KSSQSVLYESRNKNEVA | WASTRES | QAYHRLPLS | 4.30 / 3.34 / ND | 2 of 9 (3.67)
KSSQSVLYLSRNKNSVA | WISTRES | QQYSRLPLS | ND / ND / ND | 1 of 9 (4.89)
KSSQSVLAESRNKNSIA | WASERES | QQYHRLPLS | ND / ND / ND | 0 of 9
KSSQSQLYFSRNKNSVA | WASTRES | QQYARLPLS | -0.03 / 0.31 / 0.12 | 0 of 9

The 3 strongest on average among those seen in every replicate, once more:

CDR-L1,CDR-L2,CDR-L3,log10 Kd (nM) by replicate,control signals
KSPQSVLYESRNKNSVA,EASTRES,QQYHRLPLS,-0.18 / 0.15 / -0.02,1 of 9 (5.57)
KSSQSHLYESRNKNSVA,DASTRES,QRYHRLPLS,-0.10 / 0.26 / 0.03,8 of 9 (4.62)
KSSQSQLYFSRNKNSVA,WASTRES,QQYARLPLS,-0.03 / 0.31 / 0.12,0 of 9

Nonspecific signal, from three strains lacking the peptide, appeared in 18% of pairings of library AAYL50, centred on 4.19 (5% of these signals below 2.99); values are not corrected for it. For each scFv, signals with the empty controls are counted beside the result, with their mean in brackets.
Parent in this assay: reference entry 0.65, copy in this library 1.68.

Values reported by Engelhart et al. 2022, doi:10.1038/s41597-022-01779-4 (FLAb copy).